According to patent US11428693B2, “Method of high throughput screening of chemical compounds suppressing nucleolar hypertrophy” (Baylor College of Medicine, priority 2017, dated 2022):

Assays:
[1] = tested on: 4E-BP1 phosphorylation in SW1116 cells
[2] = tested on: 4E-BP1 phosphorylation in HCT-15 cells
[3] = tested on: Normal Mouse Embryonal Fibroblast Cells

CC(C)n1nc(-c2cc3cc(O)ccc3[nH]2)c2c(N)ncnc21 [pp242, 2-(4-amino-1-isopropyl-1H-pyrazolo[3,4-d]pyrimidin-3-yl)-1H-indol-5-ol]
nucleoli hypertrophy (number of nucleoli per cell nucleus) (MDA-MB-435 cells): complete reversion of nucleoli hypertrophy | nucleoli hypertrophy (number of nucleoli per cell nucleus) (AGS cells): reversion of nucleoli hypertrophy | 4E-BP1 phosphorylation of Tr37, Tr46, Tr70 and Ser 65 [1]: inhibited | 4E-BP1 phosphorylation of Tr37, Tr46, Tr70 and Ser 65 [2]: inhibited | nucleoli hypertrophy (number of nucleoli per cell nucleus) [3]: reversion of nucleoli hypertrophy
